Measurements from ChEMBL document CHEMBL1275533, “In vitro antibacterial activity of vertilmicin and its susceptibility to modifications by the recombinant AAC6'-APH2'' enzyme” (2008).

Columns and labels:
Assay type in all cases: functional
[1] = test system: Escherichia coli; experiment: Bactericidal activity against Escherichia coli ATCC 25922 assessed as log reduction in viable-cell count at 0.25 MIC by time-kill study; conditions: 0.25 M
[2] = test system: Klebsiella pneumoniae; experiment: Bactericidal activity against Klebsiella pneumoniae isolate 01-21 assessed as log reduction in viable-cell count at 0.25 MIC by time-kill study; conditions: 0.25 M
[3] = test system: Staphylococcus aureus; experiment: Bactericidal activity against Staphylococcus aureus ATCC 29213 assessed as log reduction in viable-cell count at 0.25 MIC by time-kill study; conditions: 0.25 M
[4] = test system: Staphylococcus epidermidis; experiment: Bactericidal activity against Staphylococcus epidermidis isolate 01-55 assessed as log reduction in viable-cell count at 0.25 MIC by time-kill study; conditions: 0.25 M
[5] = test system: Escherichia coli; experiment: Bactericidal activity against Escherichia coli ATCC 25922 assessed as log reduction in viable-cell count at 0.5 MIC by time-kill study; conditions: 0.5 M
[6] = test system: Klebsiella pneumoniae; experiment: Bactericidal activity against Klebsiella pneumoniae isolate 01-21 assessed as log reduction in viable-cell count at 0.5 MIC by time-kill study; conditions: 0.5 M
[7] = test system: Staphylococcus aureus; experiment: Bactericidal activity against Staphylococcus aureus ATCC 29213 assessed as log reduction in viable-cell count at 0.5 MIC by time-kill study; conditions: 0.5 M
[8] = test system: Staphylococcus epidermidis; experiment: Bactericidal activity against Staphylococcus epidermidis isolate 01-55 assessed as log reduction in viable-cell count at 0.5 MIC by time-kill study; conditions: 0.5 M

Measured: FC

GENTAMICIN
3: all assays above
